This passage reports IC50 results from patent EP4291198B1, “THERAPEUTICALLY ACTIVE COMPOUNDS AND THEIR METHODS OF USE” (dated 2026).

One assay relates to IDH1 R132H. Briefly: IDH1 R132H homodimer enzymatic assay, NADPH depletion (diaphorase/resazurin). The protocol:
(§1) A test compound is prepared as 10 mM stock in DMSO and diluted to 50X final concentration in DMSO, for a 50 µl reaction mixture. IDH enzyme activity converting alpha-ketoglutarate to 2-hydroxyglutaric acid is measured using a NADPH depletion assay. In the assay the remaining cofactor is measured at the end of the reaction with the addition of a catalytic excess of diaphorase and resazurin, to generate a fluorescent signal in proportion to the amount of NADPH remaining. IDH1-R132 homodimer enzyme is diluted to 0.125 µg/ml in 40 µl of Assay Buffer(150 mM NaCl, 20 mM Tris-Cl pH 7.5, 10 mM MgCl2, 0.05% BSA, 2 mM b-mercaptoethanol); 1 µl of test compound dilution in DMSO is added and the mixture is incubated for 60 minutes at room temperature. The reaction is started with the addition of 10 µl of Substrate Mix (20 µl NADPH, 5 mM alpha-ketoglutarate, in Assay Buffer) and the mixture is incubated for 90 minutes at room temperature. The reaction is terminated with the addition of 25 µl of Detection Buffer (36 µg/ml diaphorase, 30 mM resazurin, in 1X Assay Buffer), and is incubated for 1 minute before reading on a SpectraMax platereader at Ex544/Em590.
as §1, with “remaining. IDH1-R132H” for “remaining. IDH1-R132”, “mM b-mercaptoethanol) containing 5 µM NADPH and 37.5 µM NADP;” for “mM b-mercaptoethanol);”, “for 60” for “for 90”
(The colour change of resazurin is a common sign of viable cells or microbes.)

The subject of a further assay is IDH2 R140Q. Briefly: IDH2 R140Q enzymatic assay, cofactor depletion (diaphorase/resazurin). The protocol:
Compounds are assayed for IDH2 R140Q inhibitory activity through a cofactor depletion assay. […] The reaction is terminated by the addition of a second enzyme, diaphorase, and a corresponding substrate, resazurin. Diaphorase reduces resazurin to the highly fluorescent resorufin with the concomitant oxidation of NADPH to NADP, both halting the IDH2 reaction by depleting the available cofactor pool and facilitating quantitation of the amount of cofactor remaining after a specific time period through quantitative production of an easily detected fluorophore.
Specifically, into each of 12 wells of a 384-well plate, 1 µl of 100x compound dilution series is placed, followed by the addition of 40 µl of buffer (50 mM potassium phosphate (K2HPO4), pH 7.5; 150 mM NaCl; 10 mM MgCl2, 10% glycerol, 0.05% bovine serum albumin, 2 mM beta-mercaptoethanol) containing 0.25 µg/ml IDH2 R140Q protein. The test compound is then incubated for one hour at room temperature with the enzyme; before starting the IDH2 reaction with the addition of 10 µl of substrate mix containing 4 µM NADPH and 1.6 mM α-KG in the buffer described above. After a further 16 hours of incubation at room temperature, the reaction is halted, and the remaining NADPH measured through conversion of resazurin to resorufin by the addition of 25 µl Stop Mix (36 µg/ml diaphorase enzyme and 60 µM resazurin; in buffer). After one minute of incubation the plate is read on a plate reader at Ex544/Em590.
For determination of the inhibitory potency of compounds against IDH2 R140Q in an assay format similar to the above, a similar procedure is performed, except that the final testing concentration is 0.25 µg/ml IDH2 R140Q protein, 4 µM NADPH and 1.6 mM α-KG.
For determination of the inhibitory potency of compounds against IDH2 R140Q in a high throughput screening format, a similar procedure is performed, except that 0.25 µg/ml IDH2 R140Q protein is utilized in the preincubation step, and the reaction is started with the addition of 4 µM NADPH and 8 µM α-KG.
Specifically, into each of 12 wells of a 384-well plate, 1 µl of 50x compound dilution series is placed, followed by the addition of 40 µl of buffer (50 mM potassium phosphate (K2HPO4), pH 7.5; 150 mM NaCl; 10 mM MgCl2, 10% glycerol, 0.05% bovine serum albumin, 2 mM beta-mercaptoethanol) containing 0.39 µg/ml IDH2 R140Q protein, 5 uM NADPH and 750 uM NADP. The test compound is then incubated for 16 hrs at room temperature with the enzyme and cofactors before starting the IDH2 reaction with the addition of 10 µl of substrate mix containing 8 mM α-KG (final concentration 1.6 mM) in the buffer described above. After a further 1 hour of incubation at room temperature, the reaction is halted, and the remaining NADPH measured through conversion of resazurin to resorufin by the addition of 25 µl Stop Mix (36 µg/ml diaphorase enzyme and 60 µM resazurin; in buffer). After one minute of incubation the plate is read on a plate reader at Ex544/Em590.

A further assay deals with IDH2 WT. Briefly: IDH2 wild-type enzymatic assay.
For assay [1], the system named is IDH1 wt / IDH1 R132H heterodimer. Put plainly: IDH1 wt / IDH1 R132H heterodimer enzymatic assay, NADPH depletion (diaphorase/resazurin). The protocol:
In the primary reaction, the reduction of α-KG acid to 2HG is accompanied by a concomitant oxidation of NADPH to NADP. The amount of NADPH remaining at the end of the reaction time is measured in a secondary diaphorase/resazurin reaction in which the NADPH is consumed in a 1:1 molar ratio with the conversion of resazurin to the highly fluorescent resorufin.
The primary reaction is performed in a volume of 50 µL 1X Buffer (150 mM NaCl, 20 mM Tris 7.5, 10 mM MgCl2, 0.05% (w/v) bovine serum albumin), contained 0.25 ug/mL (2.7 nM) IDH1 wt / IDH1 R132H heterodimer, 0.3 mM alpha-ketoglutarate, 4 µM NADPH, and either 300 µM NADP (saturated) or 30 µM NADP (without saturation), and 1 uL of 50X compound in DMSO. The mixture of compound, enzyme, and cofactor is pre-incubated at room temperature for 1 hr prior to the addition of alpha-ketoglutarate. To perform the secondary reaction, 10 uL of 1X buffer containing 36 µg/ml diaphorase and 30 mM resazurin is added to the primary reaction and incubated for a further 5 minutes at 25 °C. Florescence is read on a Spectramax platereader at Ex 544 Em 590. Compounds or compound dilutions are prepared in 100% DMSO concentration and diluted 1:50 into the final reaction. IDH1 wt / IDH1 R132C is assayed under similar conditions except that 1X Buffer is 50 mM K2HP04, pH 6.5; 10 mM MgCl2; 10% glycerol; 0.03% (w/v) bovine serum albumin and final concentrations are 0.4 ug/mL (4.3 nM) IDH1 wt / IDH1 R132C heterodimer, 0.02 mM alpha-ketoglutarate, 4 uM NADPH, and either 300 µM NADP (saturated) or 30 µM NADP (without saturation). IC50s are determined.
(§2) IDH1 or IDH2 wildtype (wt) and mutant heterodimers are expressed and purified by methods known in the art. For example, IDH1wt/R132m heterodimer is expressed and purified as follows. Co-expression of IDH1wt-his and IDH1R132C-flag is carried out in sf9 insect cells. Cells (25g) are resuspended in 250 ml of 50mM Tirs, 500mM NaCl, pH7.4, at 4°C with stirring. Cells are disrupted with 4 passes through an M-Y110 Micro fluidizer (Microfluidics) set to 500 psi, and then centrifuged at 22,000 rcf for 20min at 4°C. The supernatant is harvested and loaded at 15cm/h on a Histrap FF 5*1ml column (GE) which is equilibrated with 50mM Tirs, 500mM NaCl, pH7.4. Host cell contaminants are removed by washing the column with equilibration buffer followed by equilibration buffer containing 20mM imidazole and 60mM imidazole to baseline. IDH1wt-his homodimer and IDH1wt-his / IDH1R132C-flag are eluted by equilibration buffer containing 250mM imidazole. Fractions eluted by 250mM imidazole are pooled together and loaded at 15cm/h onto a column pre-packed with 10ml ANTI-FLAG® M2 Affinity Gel (Sigma), the column is equilibrated with 50mM Tris, 500mM NaCl, pH7.4. After washing with equilibration buffer, IDH1wt-his/IDH1R132C-flag heterodimer is eluted by equilibration buffer containing flag peptide (0.2mg/ml). Aliquots of IDH1wt-his/IDH1R132C-flag are flash frozen in liquid N2 and stored at -80°C. Same conditions are used for the purification of IDH1wt-his/IDH1R132H-flag.

The test system of a further assay is WT/R140Q. Put plainly: IDH2 WT/R140Q heterodimer enzymatic assay. The method, then: as §2
The next assay has as its system IDH1 WT. Put plainly: IDH1 wild-type enzymatic assay (NADPH/diaphorase/resazurin type).
Setting [2] is: read-out: IDH1 R132H IC50 1h, 1h.
Where [3] appears, read: read-out: IDH2 R140Q IC50 1h, 1h.
The mark [4] stands for this setting: read-out: IDH2 R140Q IC50 16h, 16h.
The mark [5] stands for this setting: read-out: IDH2 WT IC50 16h, 16h.
The mark [6] stands for this setting: read-out: WT/R132H IC50 16 h, 16 h.
The mark [7] stands for this setting: read-out: WT/R140Q IC50 16 h, 16 h.
Where [8] appears, read: read-out: IDH1 WT IC50 16h, 16h.
Where [9] appears, read: read-out: IDH1 R132H IC50 16h, 16h.

Where two headings read alike, the source gives them in different places.

For the molecule `CSc1cccc(-c2nc(N[C@H](C)C(F)(F)F)nc(N[C@H](C)C(F)(F)F)n2)n1`, the IC50 in the assay on IDH1 R132H (setting [2]) is 36 nM; with IDH2 R140Q (setting [3]), 193 nM; with IDH2 R140Q (setting [4]), 21 nM; in the assay on IDH2 WT (read-out: IDH2 WT IC50 1h, 1h) it was 410 nM; in the assay with IDH2 WT (setting [5]) it was 37 nM; in assay [1] (read-out: WT/R132H IC50 1h, 1h), 14 nM. Besides, the IC50 in assay [1] (setting [6]) stood at 2 nM; in the assay with WT/R140Q (read-out: WT/R140Q IC50 1h, 1h), 488 nM; with WT/R140Q (setting [7]), 40 nM; in the assay on IDH1 WT (read-out: IDH1 WT IC50 1h, 1h) it was 1590 nM; in the assay on IDH1 WT (setting [8]) it was 42 nM.

In the case of `C[C@@H](Nc1nc(N[C@H](C)C(F)(F)F)nc(-c2cccc(S)n2)n1)C(F)(F)F`, the IC50 with IDH1 R132H (setting [2]) is 576 nM; in the assay on IDH1 R132H (setting [9]), 711 nM; with IDH2 R140Q (setting [3]), 2340 nM; in the assay with IDH2 R140Q (setting [4]), 1560 nM; with IDH2 WT (setting [5]), 5060 nM; in assay [1] (read-out: WT/R132H IC50 1h, 1h), 717 nM. Besides, the IC50 in assay [1] (setting [6]) amounted to 246 nM; in the assay on WT/R140Q (setting [7]) it was 7720 nM; in the assay with IDH1 WT (read-out: IDH1 WT IC50 1h, 1h), 5550 nM; in the assay on IDH1 WT (setting [8]), 1260 nM.

Consider `C[C@@H](Nc1nc(N[C@H](C)C(F)(F)F)nc(-c2cccc([S+](C)[O-])n2)n1)C(F)(F)F` (stereo partly shown), for which the IC50 came out at 451 nM in the assay with IDH1 R132H (setting [2]); 552 nM in the assay with IDH2 R140Q (setting [3]); 146 nM in the assay with IDH2 R140Q (setting [4]); 1200 nM in the assay with IDH2 WT (read-out: IDH2 WT IC50 1h, 1h); 209 nM in the assay with IDH2 WT (setting [5]); 81 nM in assay [1] (read-out: WT/R132H IC50 1h, 1h). In addition, the IC50 was 69 nM in assay [1] (setting [6]); 1710 nM with WT/R140Q (read-out: WT/R140Q IC50 1h, 1h); 264 nM in the assay with WT/R140Q (setting [7]); 4880 nM with IDH1 WT (read-out: IDH1 WT IC50 1h, 1h); 161 nM with IDH1 WT (setting [8]).

As to `C[C@@H](Nc1nc(N[C@H](C)C(F)(F)F)nc(-c2cccc(S(C)(=O)=O)n2)n1)C(F)(F)F`, the IC50 with IDH1 R132H (setting [2]) was 168 nM; with IDH1 R132H (setting [9]) it was 394 nM; in the assay with IDH2 R140Q (setting [3]) it was 430 nM; in the assay on IDH2 R140Q (setting [4]) it was 59 nM; with IDH2 WT (read-out: IDH2 WT IC50 1h, 1h), 910 nM; with IDH2 WT (setting [5]), 98 nM. Moreover, the IC50 in assay [1] (read-out: WT/R132H IC50 1h, 1h) is 22 nM; in assay [1] (setting [6]), 34 nM; with WT/R140Q (read-out: WT/R140Q IC50 1h, 1h), 1230 nM; with WT/R140Q (setting [7]) it was 125 nM; in the assay with IDH1 WT (read-out: IDH1 WT IC50 1h, 1h) it was 1580 nM; in the assay on IDH1 WT (setting [8]) it was 75 nM.

With “6,6'-(6,6'-disulfanediylbis(pyridine-6,2-diyl))bis(N2,N4-bis((R)-1,1,1 -trifluoropropan-2-yl)-1,3,5-triazine-2,4-diamine)”, the IC50 in the assay with IDH1 R132H (setting [2]) was 501 nM; with IDH1 R132H (setting [9]) it was 222 nM; with IDH2 R140Q (setting [3]) it was 1300 nM; with IDH2 R140Q (setting [4]) it was 3510 nM; in assay [1] (read-out: WT/R132H IC50 1h, 1h), 415 nM; in assay [1] (setting [6]) it was 591 nM. In addition, the IC50 in the assay with IDH1 WT (read-out: IDH1 WT IC50 1h, 1h) was 1520 nM; with IDH1 WT (setting [8]), 832 nM.
